This passage reports IC50 results from patent publication US9340577B2, “HLA binding motifs and peptides and their uses” (priority 1992, dated 2016).

Among the targets are DRB1*1201 (Homo sapiens, UniProt P01903+P01911, A100R/A169T/D57E/D86V/F55L/H45Y/K41T/L162R/M171V/P40S/Q125H/Q178H/Q39Y/Q99D/R42G/S66L/T262R/V114A/V67L/W38E/Y59H/Y61H/Y89S); HLA-A1 (A*0101) (Homo sapiens, UniProt P04439, A114D/A174V/A182V/D101N/D185E/E176A/E190D/L180R/Q94H/R68K/S129P/T187R/V100A/V91M/W191G); DRB1*0901 (Homo sapiens, UniProt P01903+P01911, A100R/A103E/D57H/D86V/F55Y/F60I/F76Y/I96F/K127E/L162R/M171V/P40D/Q125H/Q99R/R33Q/R42F/S133A/S66N/T210M/V115G/W38K/Y107V/Y59G/Y89S); DRB1*1501 (Homo sapiens, UniProt P01903+P01911).

What all share (assay): biochemical
A further assay addresses A*2902 (Homo sapiens, UniProt P04439, A270S/D101N/D185E/E176V/E277Q/E87Q/F33T/G231S/H175R/I121M/I218V/I322F/K168Q/L300P/L318F/M331R/P208A/P217A/Q86L/T323A/T345S/V100A/V358M). It counts as binding.
The next assay concerns the target A*2601 (Homo sapiens, UniProt P04439, A114D/A173T/A270S/D101N/D185E/E277Q/E87N/F33Y/G231S/I121R/I218V/K168Q/L180W/L300P/L318F/P208A/P217A/Q86R/Q94H/R138Q/S129P/T187R/T323A/T345S/V100A/V358M). The assay is classed as binding.
Another assay addresses A*3002 (Homo sapiens, UniProt P04439, D101N/D140H/D185E/E176R/F33S/G80R/H175R/K168Q/Q94H/R138E/R41S/V100E). The assay is classed as binding.
In the next assay the target is DRB1*0405 (Homo sapiens, UniProt P01903+P01911, A100R/A169T/D86S/F76Y/I96L/K127E/L162R/M171V/N62H/P40V/Q125Y/R42H/S133A/S149N/S66Y/V115G/V209L/W38E). The assay is classed as binding.

For `CC(C)[C@H](N)C(=O)N[C@H](C(=O)N[C@@H](CCCNC(=N)N)C(=O)N[C@@H](CC(N)=O)C(=O)N[C@@H](CC(=O)O)C(=O)N[C@H](C(=O)NCC(=O)N1CCC[C@H]1C(=O)N[C@@H](Cc1ccc(O)cc1)C(=O)O)C(C)C)[C@@H](C)O` [Peptide 1610.05], the IC50 (as a rule, the concentration that gives 50% inhibition) against A*2902 is over 20000 nM; on A*2601 it was 4880 nM; against A*3002 it was 20 nM.
The compound `CC[C@H](C)[C@H](NC(=O)CNC(=O)[C@H](Cc1ccc(O)cc1)NC(=O)[C@H](CC(C)C)NC(=O)[C@H](CO)NC(=O)[C@H](CC(C)C)NC(=O)[C@H](CC(C)C)NC(=O)[C@H](CO)NC(=O)[C@H](CC(C)C)NC(=O)[C@H](CCC(=O)O)NC(=O)[C@H](CO)NC(=O)[C@H](CC(C)C)NC(=O)[C@H](CCC(=O)O)NC(=O)[C@H](CCCNC(=N)N)NC(=O)[C@@H](N)CC(C)C)C(=O)O` [Peptide 68.0043] registered an IC50 against DRB1*1201 of 1170 nM.
As to `C[C@H](NC(=O)[C@H](CCC(N)=O)NC(=O)[C@@H](N)CCC(N)=O)C(=O)N[C@H](C(=O)N1CCC[C@H]1C(=O)NCC(=O)N1CCC[C@H]1C(=O)N[C@@H](C)C(=O)N[C@@H](Cc1ccc(O)cc1)C(=O)O)[C@@H](C)O` [Peptide 1610.06], the IC50 came to 310 nM against A*2902, 3430 nM on HLA-A1 (A*0101), 1320 nM against A*2601 and 13 nM against A*3002.
Consider `CC[C@H](C)[C@H](NC(=O)[C@H](CS)NC(=O)[C@@H](N)CC(N)=O)C(=O)N[C@@H](CC(C)C)C(=O)N[C@@H](CC(C)C)C(=O)N[C@@H](Cc1ccc(O)cc1)C(=O)NCC(=O)N[C@@H](C)C(=O)N[C@@H](C)C(=O)N[C@@H](CC(N)=O)C(=O)N[C@H](C(=O)NCC(=O)N[C@@H](CCCCN)C(=O)N[C@@H](CO)C(=O)N[C@@H](CC(C)C)C(=O)O)[C@@H](C)O` [Peptide 89.0017], for which the IC50 at DRB1*0901 is 1170 nM; on DRB1*0405, 4060 nM.
At DRB1*1201, `CSCC[C@H](NC(=O)[C@H](Cc1ccccc1)NC(=O)[C@H](CCC(=O)O)NC(=O)[C@@H](NC(=O)CNC(=O)[C@H](CCC(N)=O)NC(=O)[C@H](Cc1ccc(O)cc1)NC(=O)[C@H](CCCNC(=N)N)NC(=O)[C@H](CC(C)C)NC(=O)[C@H](Cc1ccccc1)NC(=O)[C@H](CCSC)NC(=O)[C@@H](N)C(C)C)C(C)C)C(=O)N[C@@H](CO)C(=O)N[C@@H](Cc1ccccc1)C(=O)N[C@@H](CC(C)C)C(=O)O` [Peptide 89.0014] gave an IC50 of 1320 nM.
On the same count and under the same terms, to `CSCC[C@H](NC(=O)[C@H](CC(=O)O)NC(=O)[C@H](CC(N)=O)NC(=O)[C@H](CO)NC(=O)[C@H](CC(C)C)NC(=O)[C@H](CC(C)C)NC(=O)[C@H](Cc1c[nH]cn1)NC(=O)[C@@H](N)CC(C)C)C(=O)N[C@@H](CS)C(=O)N[C@@H](C)C(=O)N[C@@H](CCCNC(=N)N)C(=O)N[C@@H](C)C(=O)N[C@@H](Cc1ccc(O)cc1)C(=O)N[C@@H](CO)C(=O)N[C@@H](CCC(=O)O)C(=O)O` [Peptide 68.0140] belongs 1150 nM; to `CC[C@H](C)[C@H](NC(=O)[C@H](CCSC)NC(=O)[C@H](CCSC)NC(=O)[C@H](CS)NC(=O)[C@H](CCSC)NC(=O)[C@@H]1CCCN1)C(=O)N[C@@H](CCC(=O)O)C(=O)N1CCC[C@H]1C(=O)N1CCC[C@H]1C(=O)N[C@@H](CCCCN)C(=O)N[C@@H](CC(C)C)C(=O)N[C@@H](CCCNC(=N)N)C(=O)N[C@@H](CO)C(=O)N[C@H](C(=O)N[C@@H](C)C(=O)O)[C@@H](C)O` [Peptide 90.0034], 1320 nM.
Same read-out and setting: to `CSCC[C@H](NC(=O)CNC(=O)CNC(=O)[C@H](CCCNC(=N)N)NC(=O)[C@@H](NC(=O)[C@H](CCC(N)=O)NC(=O)[C@H](C)NC(=O)[C@@H](NC(=O)[C@@H](NC(=O)[C@H](CC(C)C)NC(=O)[C@H](Cc1c[nH]cn1)NC(=O)[C@H](Cc1ccc(O)cc1)NC(=O)[C@@H](N)CCCCN)[C@@H](C)O)C(C)C)C(C)C)C(=O)N[C@H](C(=O)N[C@@H](Cc1ccccc1)C(=O)O)C(C)C` [Peptide 68.0120] belongs 6380 nM.
With `CC[C@H](C)[C@H](N)C(=O)N[C@H](C(=O)N[C@H](C(=O)N[C@@H](CC(N)=O)C(=O)N[C@@H](CC(N)=O)C(=O)N[C@@H](CO)C(=O)NCC(=O)N[C@@H](CO)C(=O)N[C@@H](Cc1ccc(O)cc1)C(=O)O)C(C)C)[C@@H](C)O` [Peptide 1553.02], the IC50 against A*2902 is 1850 nM; on HLA-A1 (A*0101), 2360 nM; against A*2601, 24 nM; on A*3002, 20 nM.
Regarding `CC[C@H](C)[C@H](NC(=O)[C@H](Cc1c[nH]cn1)NC(=O)[C@H](C)NC(=O)[C@H](Cc1ccc(O)cc1)NC(=O)[C@H](CC(C)C)NC(=O)[C@@H](NC(=O)[C@H](C)NC(=O)[C@@H]1CCCN1C(=O)[C@H](CCCCN)NC(=O)[C@@H](NC(=O)[C@H](CC(C)C)NC(=O)[C@@H](NC(=O)[C@@H](N)CCCCN)[C@@H](C)O)[C@@H](C)CC)[C@@H](C)O)C(=O)N[C@@H](CCC(N)=O)C(=O)N[C@@H](CS)C(=O)O` [Peptide 89.0083], 1170 nM corresponded to half-maximal inhibition against DRB1*0901 (IC50).
Same read-out and setting: the figure for `CC[C@H](C)[C@H](N)C(=O)N[C@@H](CCC(=O)O)C(=O)N[C@@H](Cc1ccccc1)C(=O)N[C@H](C(=O)N[C@H](C(=O)N[C@@H](Cc1ccccc1)C(=O)N[C@@H](CC(C)C)C(=O)NCC(=O)N[C@@H](C)C(=O)N[C@@H](CC(C)C)C(=O)N[C@@H](CCCCN)C(=O)N[C@@H](CO)C(=O)N[C@@H](Cc1ccccc1)C(=O)N[C@@H](CC(C)C)C(=O)N[C@@H](CCCCN)C(=O)O)[C@@H](C)O)[C@@H](C)CC` [Peptide 89.0033] is 15200 nM.
On to `CC[C@H](C)[C@H](NC(=O)[C@H](CC(=O)O)NC(=O)[C@H](CO)NC(=O)[C@@H](N)CC(C)C)C(=O)N[C@@H](CO)C(=O)N[C@@H](CCC(=O)O)C(=O)N[C@@H](Cc1ccc(O)cc1)C(=O)N[C@@H](CCCNC(=N)N)C(=O)N[C@@H](Cc1c[nH]cn1)C(=O)N[C@@H](Cc1ccc(O)cc1)C(=O)O` [Peptide 1549.45], for which, on A*2601, the midpoint of inhibition, the IC50, lay at 2540 nM.
Take `CC[C@H](C)[C@H](NC(=O)[C@H](CC(C)C)NC(=O)[C@H](CC(C)C)NC(=O)[C@H](CC(C)C)NC(=O)[C@@H](NC(=O)[C@H](CC(C)C)NC(=O)[C@@H](NC(=O)CNC(=O)[C@H](CCCNC(=N)N)NC(=O)[C@@H](N)CC(=O)O)C(C)C)[C@@H](C)CC)C(=O)N[C@@H](CCCNC(=N)N)C(=O)N[C@@H](Cc1ccccc1)C(=O)N[C@@H](CCCCN)C(=O)N[C@@H](CS)C(=O)NCC(=O)O` [Peptide 89.0099]: the IC50 against DRB1*0901 amounted to 14200 nM; against DRB1*1501 it was 426 nM.
For the compound `CC[C@H](C)[C@H](NC(=O)[C@@H](NC(=O)[C@H](CCC(N)=O)NC(=O)[C@H](Cc1ccccc1)NC(=O)[C@H](C)N)C(C)C)C(=O)N[C@@H](CCC(=O)O)C(=O)N[C@@H](CC(C)C)C(=O)N[C@@H](CCC(N)=O)C(=O)N[C@@H](CCSC)C(=O)N[C@@H](C)C(=O)N[C@@H](CC(C)C)C(=O)N[C@@H](CCC(=O)O)C(=O)N[C@H](C(=O)N[C@@H](CC(C)C)C(=O)N[C@@H](CO)C(=O)O)[C@@H](C)O` [Peptide 89.0181], the IC50 against DRB1*0901 is 257 nM.
Compound `CC[C@H](C)[C@H](NC(=O)[C@H](CCC(=O)O)NC(=O)[C@H](CCC(=O)O)NC(=O)[C@H](CC(C)C)NC(=O)[C@@H](NC(=O)[C@H](CCC(=O)O)NC(=O)[C@@H](NC(=O)[C@@H](N)C(C)C)[C@@H](C)O)[C@@H](C)O)C(=O)N[C@H](C(=O)NCC(=O)N[C@@H](Cc1ccc(O)cc1)C(=O)O)[C@@H](C)O` [Peptide 9012.0178] displayed an IC50 at A*2601 of 3510 nM.
